# Test results taken from PubChem BioAssay AID1688 (National Center for Advancing Translational Sciences (NCATS), 2009).
# Only a part is listed here, and it is no random draw. Records with an inconclusive call do not appear. The source made the active and inactive calls. Calls follow the shape of the dose curve; as a rule, active = well fitted inhibition curve with a large enough effect; inconclusive = small, poorly fitted or top-dose-only effect, or effect the other way; inactive = no such curve, though single readings can be large or run the other way.
# Assay: qHTS Multiplex Assay to Identify Dual Action Probes in a Cell Model of Huntington: Aggregate Formation (GFP); also: nearly all actives have a fitted effect of over 60% in size
# Conditions: PC12 HttQ103-GFP aggregates, Acumen cytometry, 40 h; at 46.1 µM (top of the series) unless noted
# % is scaled to controls: 0 for no effect and ±100 for the full control effect.
row,Structure (SMILES),"activity change, negative = inhibition"
1,CP(=O)(Nc1ccc(Cl)cc1)Oc1ccc(F)cc1 (stereo unspecified),inactive: -3.82%
2,COc1ccccc1OP(C)(=O)Nc1ccccc1Br (stereo unspecified),inactive: 8.67%
3,CC(C)(C)c1ccc(OP(C)(=O)O)cc1,inactive: -2.19%
4,CP(=O)(Oc1ccccc1)N1CCOC1=O (stereo unspecified),inactive: -4.32%
5,CCc1ccc(OP(C)(=O)Nc2cccnc2)cc1 (stereo unspecified),inactive: 0.334%
6,COc1ccccc1OP(C)(=O)Nc1c(C)n(C)n(-c2ccccc2)c1=O (stereo unspecified),inactive: 14.1%
7,OCCSCCO,inactive: -9.98%
8,N#[O+].[C-]#N.[C-]#N.[C-]#N.[C-]#N.[C-]#N.[Fe+2].[Na+].[Na+],inactive: 14%
9,CCN(CC)CC(O)COC(=O)C(O)(c1ccccc1)C1CCCCC1 (stereo unspecified),inactive: 0.177%
10,COc1ccc(OP(C)(=O)Nc2ccc(Br)cc2)cc1 (stereo unspecified),inactive: 2.35%
11,C/C1=C2N=C(/C=C3N=C(/C(C)=C4\[N-][C@@](C)([C@H]5N=C1[C@@](C)(CCC(=O)NC[C@H](C)OP(=O)([O-])O[C@@H]1[C@H](O)[C@H](n6cnc7cc(C)c(C)cc76)O[C@@H]1CO)[C@@H]5CC(N)=O)[C@](C)(CC(N)=O)[C@H]4CCC(N)=O)[C@@](C)(CC(N)=O)[C@@H]\3CCC(N)=O)C(C)(C)[C@@H]/2CCC(N)=O.[C-]#N.[Co+3],inactive: 11.3% [at 20.6 µM]
12,CC(C)OP(=O)(F)OC(C)C,inactive: 27.4%
13,CP(=O)(OC12CC3CC(CC(C3)C1)C2)OC12CC3CC(CC(C3)C1)C2,inactive: 9.97%
14,CCOC(=O)c1ccc(NP(C)(=O)Oc2ccc(Cl)cc2)cc1 (stereo unspecified),inactive: -3.65%
15,CP(=O)(Nc1ccc(Cl)cc1Cl)Oc1ccccc1 (stereo unspecified),inactive: 3.55%
16,CP(=O)(OCCOc1ccccc1)OCCOc1ccccc1,inactive: 13.3%
17,COc1ccc(OP(C)(=O)Nc2ccccc2Br)cc1 (stereo unspecified),inactive: -2.31%
18,COc1ccccc1OP(C)(=O)Nc1ccc(C)c(C)c1 (stereo unspecified),inactive: -6.12%
19,Cc1cc(C)cc(OP(C)(=O)Nc2cccc(C(F)(F)F)c2)c1 (stereo unspecified),inactive: 7.48% [at 9.22 µM]
20,CCc1ccc(OP(C)(=O)O)cc1,inactive: -9.35%
21,CP(=O)(Nc1ccccn1)Oc1ccccc1 (stereo unspecified),inactive: -16.4%

row,Structure (SMILES),"activity change, negative = inhibition"
1,COc1ccccc1OP(C)(=O)Nc1ccc(C)cc1C (stereo unspecified),inactive: 6.8%
2,Cc1c(NP(C)(=O)Oc2ccc(C(C)C)cc2)c(=O)n(-c2ccccc2)n1C (stereo unspecified),inactive: 2.68%
3,O=[N+]([O-])c1cc([N+](=O)[O-])c(Nc2ccccn2)c([N+](=O)[O-])c1,inactive: -1.39% [at 9.22 µM]
4,CN(C)CCOC(=O)C(O)(c1ccccc1)C1CCCC1 (stereo unspecified),inactive: 7.95%
5,COc1ccccc1OP(C)(=O)Nc1ccc(Br)cc1 (stereo unspecified),inactive: -11.8% [at 9.22 µM]
6,O=C(OCCN1CCN(CCOCc2ccccc2)CC1)C(O)(c1ccccc1)c1ccccc1,inactive: 10.1%
7,CC(C)c1ccc(OP(C)(=O)Nc2ccc(SC(F)(F)F)cc2)cc1 (stereo unspecified),inactive: -5.53%
8,CP(=O)(Nc1ccccc1F)Oc1ccccc1 (stereo unspecified),inactive: 7.75%
9,CCCCCOc1ccc(NP(C)(=O)Oc2ccc(Cl)cc2Cl)cc1 (stereo unspecified),inactive: -3.15% [at 9.22 µM]
10,CP(=O)(Nc1ccccc1)Oc1ccc(F)cc1 (stereo unspecified),inactive: 2.24%
11,CCN(CC)CCCOC(=O)C(O)(c1ccccc1)C1CCCCC1 (stereo unspecified),inactive: 0.946%
12,COc1ccc(OP(C)(=O)Nc2ccc(SC(F)(F)F)cc2)cc1 (stereo unspecified),inactive: -15.3%
13,CCOC(=O)c1ccc(NP(C)(=O)Oc2ccc(F)cc2)cc1 (stereo unspecified),inactive: -20.3%
14,Cc1cc(-c2cccc3ccccc23)c(C)cn1.O=[N+]([O-])c1cc([N+](=O)[O-])c(O)c([N+](=O)[O-])c1,inactive: -7.36% [at 9.22 µM]
15,O=[N+]([O-])c1ccc(OP2(=O)COCCO2)cc1 (stereo unspecified),inactive: -11.9% [at 9.22 µM]
16,COc1ccc(NP(C)(=O)Oc2ccccc2OC)cc1 (stereo unspecified),inactive: 1.4%
17,CN(C)CCOC(=O)C(O)(c1ccccc1)C1CCCCC1 (stereo unspecified),inactive: -27.6%
18,COc1ccc(OP(C)(=O)Nc2cccc(Br)c2)cc1 (stereo unspecified),inactive: -4.67%
19,Cc1ccccc1NP(C)(=O)Nc1ccccc1C,inactive: 24.3%
20,CP(=O)(Nc1ccc2c(c1)OCCO2)Oc1ccccc1 (stereo unspecified),inactive: 3.02%
21,CCOP(C)(=S)SCC(=O)NC(C)(CC)C(=O)O (stereo unspecified),inactive: 17.4%

row,Structure (SMILES),"activity change, negative = inhibition"
1,CP(=O)(Nc1ccc(SC(F)(F)F)cc1)Oc1ccc(F)cc1 (stereo unspecified),inactive: -5.12% [at 9.22 µM]
2,Cc1nc2ccc3ccccc3c2s1.O=[N+]([O-])c1cc([N+](=O)[O-])c(O)c([N+](=O)[O-])c1,inactive: -2.12%
3,O=[N+]([O-])c1cc([N+](=O)[O-])c(-n2nnc3ccccc32)c([N+](=O)[O-])c1,inactive: 4.69%
4,CCCOc1ccc(NP(C)(=O)Oc2ccc(Cl)cc2)cc1 (stereo unspecified),inactive: -14.3%
5,CP(=O)(Nc1ccc(SC(F)(F)F)cc1)Oc1ccccc1 (stereo unspecified),inactive: -11%
6,COc1ccccc1OP(C)(=O)Nc1c(C)cccc1C (stereo unspecified),inactive: 11.4%
7,CN1CCCCC1COC(=O)C1(O)c2ccccc2CCc2ccccc21 (stereo unspecified),inactive: -2.6%
8,O=[N+]([O-])c1cc([N+](=O)[O-])c(Nc2nnnn2CCO)c([N+](=O)[O-])c1,inactive: -41.7% [at 9.22 µM]
9,O=[N+]([O-])OCC(CO[N+](=O)[O-])(CO[N+](=O)[O-])CO[N+](=O)[O-],inactive: 9.38%
10,CC1=NCCc2c1[nH]c1ccccc21.O=[N+]([O-])c1cc([N+](=O)[O-])c(O)c([N+](=O)[O-])c1,inactive: -0.397%
11,O=[N+]([O-])c1cccc([N+](=O)[O-])c1,inactive: 5.9%
12,Cc1cc(C)cc(OP(C)(=O)Nc2ccccn2)c1 (stereo unspecified),inactive: -3.34%
13,CP(=O)(Nc1cccc(Br)c1)Oc1ccccc1 (stereo unspecified),inactive: -1.34%
14,Cc1ccc(C)c(NP(C)(=O)Oc2ccccc2)c1 (stereo unspecified),inactive: 20.7%
15,Cc1cc(C)cc(OP(C)(=O)Nc2ccc(C)cc2C)c1 (stereo unspecified),inactive: -8.97%
16,CCOC(=O)c1ccc(NP(C)(=O)Oc2cc(C)cc(C)c2)cc1 (stereo unspecified),inactive: -4.42%
17,COc1ccccc1OP(C)(=O)Nc1cccc(Br)c1 (stereo unspecified),inactive: 8.65% [at 9.22 µM]
18,O=[N+]([O-])[O-].[NH4+],inactive: 0.268%
19,CCN(CC)CCCOC(=O)C(O)(c1ccccc1)c1ccccc1,inactive: 1.11%
20,COc1ccccc1OP(C)(=O)Nc1cc(Cl)ccc1C (stereo unspecified),inactive: 5.82% [at 9.22 µM]
21,COc1ccc(OP(C)(=O)Nc2cccc(F)c2)cc1 (stereo unspecified),inactive: 3.15% [at 9.22 µM]

row,Structure (SMILES),"activity change, negative = inhibition"
1,Cc1cc(C)cc(OP(C)(N)=O)c1 (stereo unspecified),inactive: 18%
2,CCOC(=O)c1ccc(NP(C)(=O)Oc2ccccc2)cc1 (stereo unspecified),inactive: 13.1%
3,COc1ccccc1OP(C)(=O)Nc1ccc(C)cc1 (stereo unspecified),inactive: 20.4%
4,Cc1ccc(NP(C)(=O)Oc2ccccc2)c(C)c1 (stereo unspecified),inactive: -7.32%
5,Cc1cccc(C)c1OP(C)(N)=O (stereo unspecified),inactive: 11.8%
6,COc1ccccc1OP(C)(=O)Nc1ccccc1 (stereo unspecified),inactive: 8.41%
7,CP(=O)(Nc1ccccc1Br)Oc1ccccc1 (stereo unspecified),inactive: -6.29%
8,CP(=S)(Nn1cnnc1)Oc1ccccc1 (stereo unspecified),inactive: -0.375%
9,CP(=O)(Nc1ccccn1)Oc1ccc(Cl)cc1 (stereo unspecified),inactive: 14.6%
10,CCOP(C)(=S)SCC(=O)NC(C)C(=O)O (stereo unspecified),inactive: 6.24%
11,CCOC(=O)c1ccc(NP(C)(=O)Oc2ccc(OC)cc2)cc1 (stereo unspecified),inactive: 8.28%
12,CN(C)CCS,inactive: -1.75%
13,CP(=O)(NC(=O)Nc1ccccc1)Oc1ccccc1 (stereo unspecified),inactive: -2.07%
14,CCc1ccc(OP(C)(=O)N2CCN(c3ccc([N+](=O)[O-])cc3)CC2)cc1 (stereo unspecified),inactive: -17.5% [at 9.22 µM]
15,Cc1cc(C)cc(OP(C)(=O)Nc2ccc(SC(F)(F)F)cc2)c1 (stereo unspecified),inactive: 0.317%
16,Cc1cccc(C)c1OP(C)(=O)Nc1ccc(SC(F)(F)F)cc1 (stereo unspecified),inactive: -22.7%
17,CP(=O)(Nc1ccc(SC(F)(F)F)cc1)Oc1ccc(Cl)cc1 (stereo unspecified),inactive: -9.5% [at 9.22 µM]
18,CP(=O)(Oc1ccccc1)OC(c1ccccc1)C(F)(F)F (stereo unspecified),inactive: 12.6%
